## Ab-14 heavy chain CDR variants: yeast mating affinities

The measurements come from Li et al. 2023 (doi:10.1038/s41467-023-39022-2) through the FLAb antibody collection.

The target is the same throughout: PDVDLGDISGINAS, from the HR2 region of SARS-CoV-2 spike.

Parent scFv Ab-14: VH joined to VL by the linker GGGGSGGGGSGGGGS. Changes lie in the heavy chain CDRs alone.
VH: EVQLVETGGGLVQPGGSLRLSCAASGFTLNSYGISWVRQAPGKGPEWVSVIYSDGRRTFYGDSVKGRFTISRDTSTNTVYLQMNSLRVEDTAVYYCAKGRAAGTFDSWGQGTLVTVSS
VL: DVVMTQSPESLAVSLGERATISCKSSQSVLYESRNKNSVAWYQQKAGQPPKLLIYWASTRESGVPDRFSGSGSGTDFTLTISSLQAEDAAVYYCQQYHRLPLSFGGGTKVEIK

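The parent was found by panning a naive human phage display library on the peptide. These sequences belong to a second round, designed from the earlier measurements on random variants of the parent. Group labels follow the data file (Ctrl: baseline library sampled from a position-specific scoring matrix, with some repeated check sequences; Rand: our label for a block that the file lists under HC and that is probably the random mutants of the ten best first-round binders; GP: Gaussian process model; GPLM: also part of the Gaussian process libraries; HC: hill climbing; Gen: genetic algorithm; Gibbs: Gibbs sampling; a sequence that several methods proposed may carry one label only). Affinity was read by AlphaSeq, a pooled yeast mating assay with surface-displayed partners. Pairs that bind mate more often; barcode pairs of the diploids are counted by sequencing. The ratio of observed to expected reads was calibrated, replicate by replicate, on BCL2-family standards whose Kd was known from biolayer interferometry. The assay was run in six technical replicates.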

Substitutions are numbered in sequence along the VH above, starting at 1 (not Kabat). Variants here have at most six changes. Values are apparent Kd, the geometric mean of the replicates that gave a signal; lower means stronger binding. An entry "no signal" has no value in the source: the pair was not observed among the diploids in any replicate. This suggests poor binding but is not conclusive. Entries are sorted by rising average, undetected variants last.

* T28E/N30K/S53A [GP_Gen]: 93 pM (6 of 6 replicates)
* S31D/A101T/S107V [GPLM_Gen]: 260 pM (4 of 6 replicates)
* T28S/G61S/R100L/A101T [GPLM_Gen]: 520 pM (6 of 6 replicates)
* T28D/T58S/G61A/A101E [GP_Gibbs]: 680 pM (6 of 6 replicates)
* T28S/S31N/R56K/R100Q/A101T [GP_Gibbs]: 1.2 nM (6 of 6 replicates)
* L29I/N30E/S31D/R56V [Ctrl]: 1.3 nM (6 of 6 replicates)
* T28S/R100Q/A101L/S107T [GP_Gibbs]: 1.9 nM (6 of 6 replicates)
* T28N/G61H/A101T [GPLM_Gen]: 3.2 nM (6 of 6 replicates)
* T28D/S63Q/A101T [GPLM_Gibbs]: 4.2 nM (6 of 6 replicates)
* T28Q/G61A/A101T/S107T [GP_Gen]: 4.6 nM (6 of 6 replicates)
* S31E/R56A/G61T/A101F [Rand]: 7.1 nM (5 of 6 replicates)
* F59A/G61I/A101L [Ctrl]: 7.4 nM (6 of 6 replicates)
* T28N/G61L/A101L [Ctrl]: 8.1 nM (6 of 6 replicates)
* G61I/R100T/A101I [Ctrl]: 8.5 nM (5 of 6 replicates)
* T28D/G61V/S63K/A101N [GP_Gibbs]: 9.7 nM (6 of 6 replicates)
* T28A/R100G [Ctrl]: 10 nM (5 of 6 replicates)
* T28S/S31E/S63A/R100K [GP_Gen]: 14 nM (6 of 6 replicates)
* T28S/N30E/R100A/A101E [Ctrl]: 14 nM (3 of 6 replicates)
* T28N/G61V/A101V [GPLM_Gibbs]: 18 nM (6 of 6 replicates)
* T28W/S31D/G61I/R100Q [GPLM_HC]: 20 nM (5 of 6 replicates)
* S31E/G61S/T104Q [GPLM_HC]: 32 nM (5 of 6 replicates)
* A101T/A102G [Ctrl]: 38 nM (6 of 6 replicates)
* F27E/F59A/D62G/R100S [Ctrl]: 68 nM (5 of 6 replicates)
* G26K/T28Q/S53A/R100Q [GP_Gibbs]: 74 nM (6 of 6 replicates)
* R56Y/T104G [Ctrl]: 270 nM (2 of 6 replicates)
* N30E/G61S/T104V [Ctrl]: 610 nM (1 of 6 replicates)
* F59Q/S63K/D106P [Ctrl]: 1.4 µM (2 of 6 replicates)
* S31D/F59M/D106T [GP_HC]: no signal (0 of 6 replicates)
* F27Q/G61S/G103F [Ctrl]: no signal (0 of 6 replicates)
* I34S/S53A/Y60Q/F105N/D106K [Rand]: no signal (0 of 6 replicates)
* T28E/L29R/F59W/G61A [Ctrl]: no signal (0 of 6 replicates)
* T28W/S31E/S53A/D106I [GP_HC]: no signal (0 of 6 replicates)
* G61S/R100M/F105V [Ctrl]: no signal (0 of 6 replicates)
* T28E/G61W/R100Q/A101L [GP_HC]: no signal (0 of 6 replicates)
* F27E/N30E/G61V/V64N/A101N/T104Q [Ctrl]: no signal (0 of 6 replicates)
* T58L/D62P/A101L [Ctrl]: no signal (0 of 6 replicates)
* N30E/D106L [Ctrl]: no signal (0 of 6 replicates)
* T28S/S53A/S63N/F105N [GP_HC]: no signal (0 of 6 replicates)
* N30D/A101Q/S107R [GP_HC]: no signal (0 of 6 replicates)
* T28P/S31E/R100G [GP_HC]: no signal (0 of 6 replicates)
* Y32T/G61S/A102G [Rand]: no signal (0 of 6 replicates)

The last 6 entries again:

| changes | group | Kd | detected |
|---|---|---|---|
| T58L/D62P/A101L | Ctrl | no signal | 0 of 6 |
| N30E/D106L | Ctrl | no signal | 0 of 6 |
| T28S/S53A/S63N/F105N | GP_HC | no signal | 0 of 6 |
| N30D/A101Q/S107R | GP_HC | no signal | 0 of 6 |
| T28P/S31E/R100G | GP_HC | no signal | 0 of 6 |
| Y32T/G61S/A102G | Rand | no signal | 0 of 6 |

The authors averaged sequences with at least three values out of six and counted those with two or fewer as poor binders. Of ten entries with the parent sequence, four were seen in most replicates (averages 2.2 nM to 240 nM), three in one and three in none, so single entries are noisy. Three control strains display no target. For all heavy chain designs, 1% of the pairings with them gave a signal, with a median of 120 nM and one signal in twenty below 7.0 nM, so weak values seen in few replicates may be background. Values of this round are not directly comparable with the first-round values of the same sequences.